Data taken from patent US20240208989A1, “NOVEL 12-EPI-MUTILIN COMPOUNDS AND USES THEREOF” (NABRIVA THERAPEUTICS GMBH, priority 2021, published 2024).

Legend:
[1] = tested on: cryopreserved primary mouse hepatocytes; experiment: Metabolic stability against primary hepatocytes; assay type: in vitro ADME; conditions: 1 μg/mL, 37° C., 4 hours, remaining parent compound
[2] = tested on: cryopreserved primary human hepatocytes; experiment: Metabolic stability against primary hepatocytes; assay type: in vitro ADME; conditions: 1 μg/mL, 37° C., 4 hours, remaining parent compound
[3] = tested on: Primary human hepatocytes; experiment: Cytotoxicity, human hepatocyte assay (ATPlite); assay type: cell-based; conditions: 2 hours
Procedure: The cytotoxicity for compounds of the present invention was determined using a human hepatocyte assay. Primary human hepatocytes were incubated with various test compound concentrations (in triplicate) for 2 hours. Viability of cells is then measured by the luminescence ATPlite detection assay system according to the manufacturer (Perkin Elmer). ATP is a marker for cell viability because it is present in all metabolically active cells and the concentration declines very rapidly when the cells undergo necrosis or apoptosis. The ATPlite assay system is based on the production of light caused by the reaction of ATP with added luciferase and D-luciferin, where the emitted light is proportional to the ATP concentration (within certain limits).

## 12-epi-12-desvinyl-14-O-[(azepan-4-ylsulfanyl)-acetyl]-12-((E)-2-pyridin-3-yl-ethenyl) mutilin hydrochloride [Example 154 of WO 2015/110481, reference compound]
[1]
  Metabolic stability against primary hepatocytes [% parent compound]: 0%
[2]
  Metabolic stability against primary hepatocytes [% parent compound]: 0%
[3]
  pIC50: > 3.65

pIC50: −log10 of the molar value.
